B1: ADC-125 (antibody, human IgG1, V domains shown)
VH: QVQLQQSGAEVKKPGSSVKVSCKASGYTFTNYYIYWVRQAPGQGLEWIGGINPTSGGSNFNEKFKTRVTITVDESTNTAYMELSSLRSEDTAFYFCARQGLWFDSDGRGFDFWGQGSTVTVSS
VL: DIQMTQSPSSLSASVGDRVTITCRSSQNIVHSNGNTYLDWYQQTPGKAPKLLIYKVSNRFSGVPSRFSGSGSGTDFTFTISSLQPEDIATYYCFQYSHVPWTFGQGTKLQITR
modifications: linker-drug LD-104 (maleimide) coupled to cysteine sulfhydryls after TCEP reduction; average drug loading y=5.66 per antibody; positions not given
B2: ADC-127 (antibody, human IgG1, V domains shown)
VH: B1 VH
VL: B1 VL
modifications: linker-drug LD-98 coupled to cysteine sulfhydryls after TCEP reduction; average drug loading y=6.31 per antibody; positions not given
B3: ADC-130 (antibody, human IgG1, V domains shown)
VH: B1 VH
VL: B1 VL
modifications: linker-drug LD-113 coupled to cysteine sulfhydryls after TCEP reduction; average drug loading y=7.18 per antibody; positions not given
B4: ADC-131 (antibody, human IgG1, V domains shown)
VH: B1 VH
VL: B1 VL
modifications: linker-drug LD-114 coupled to cysteine sulfhydryls after TCEP reduction; average drug loading y=7.30 per antibody; positions not given

Results on four molecules are retold here after patent US20260001891A1 (KEYMED BIOSCIENCES CHENGDU, published 2026).

In the test the target is EGFR (human (endogenous on human cancer cell …, UniProt P00533 25-1210)). Nature of the test: cell-based or functional assay.
As for B1, the “IC50 of in vitro proliferation inhibition, EGFR-positive MDA-MB-468 cells (CCK8, 6 days)” value is 190 pM.
Consider B2, for which the “IC50 of in vitro proliferation inhibition, EGFR-positive MDA-MB-468 cells (CCK8, 6 days)” value was 140 pM.
As for B3, the figure is 190 pM; as for B4, 230 pM.
